We go through one compound from ChEMBL document CHEMBL1123919, “Molecular modification of anticholinergics as probes for muscarinic receptors. 3. Conformationally restricted analogues of benactyzine” (J Med Chem, 1987).

One may read the pA2 as the negative logarithm of the molar antagonist concentration that doubles the agonist concentration needed for the same response.

The species named for this test is Rattus norvegicus. The experiment in a line: Antimuscarinic potency is measured as its ability to block ACh-induced contractions of the rat ileum. In kind it is functional.

With `CCN(CC)CCOC(=O)C(O)(c1ccccc1)c1ccccc1`, the pA2 is 7.46.
